# Measured values: patent publication US20260069588A1, “VEPDEGESTRANT FOR USE IN TREATING CANCER” (Arvinas Operation, Inc., priority 2022, published 2026)
# Tested on: ST941/HI PDX model, ESR1 (Y537S)
# Conditions: mice
smiles,measurement,setting,value
"C[C@]12CC[C@@H]3c4ccc(O)cc4C[C@@H](CCCCCCCCC[S+]([O-])CCCC(F)(F)C(F)(F)F)[C@H]3[C@@H]1CC[C@@H]2O (some centres unmarked) [fulvestrant, reference compound]",terminal plasma level above reported clinical Cmax (500 mg IM),,approximately 5 fold
same,terminal plasma levels,fulvestrant regimen,250 nM
